Assay results taken from patent US20240199535A1, “DEUTERATED DHODH INHIBITORS” (priority 2021, published 2024).

Amino acid sequences for entries named in this document (tags omitted). A change or cut given only in a name is not applied to a line headed by its entry.
UniProt Q02127: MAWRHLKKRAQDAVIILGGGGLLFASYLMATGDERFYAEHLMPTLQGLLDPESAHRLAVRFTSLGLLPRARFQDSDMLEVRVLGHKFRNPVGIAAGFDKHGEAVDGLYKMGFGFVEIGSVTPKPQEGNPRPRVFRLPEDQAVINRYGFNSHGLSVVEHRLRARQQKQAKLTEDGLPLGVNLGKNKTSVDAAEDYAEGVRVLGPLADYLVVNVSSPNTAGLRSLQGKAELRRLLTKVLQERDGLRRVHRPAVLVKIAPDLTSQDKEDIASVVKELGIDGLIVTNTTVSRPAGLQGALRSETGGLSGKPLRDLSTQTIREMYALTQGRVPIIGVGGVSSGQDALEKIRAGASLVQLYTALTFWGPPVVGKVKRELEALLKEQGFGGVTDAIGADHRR

Molecular target: N-terminally truncated recombinant hDHODH enzyme (Homo sapiens, UniProt Q02127)
Assay: biochemical

Structure (SMILES)	IC50 [µM]	Ki [µM]
[2H]C([2H])([2H])Oc1cccc(-c2ccc(NC(=O)C3=C(C(=O)O)CCC3)c3cnccc23)c1 [12/3]	> 10	
[2H]c1cc([2H])c(-c2c(F)c(F)c(NC(=O)c3ccsc3C(=O)O)c(F)c2F)c([2H])c1OC(F)(F)F [Example 4, 3-((2,3,5,6-Tetrafluoro-3′-(trifluoromethoxy)-[1,1′-biphenyl]-4-yl-2′,4′,6′-d3)carbamoyl)thiophene-2-carboxylic Acid]		0.0012
[2H]c1cc([2H])c(-c2ccc(NC(=O)C3=C(C(=O)O)CCC3)c(F)c2)c([2H])c1O [Example 8, 2-((3-Fluoro-3′-hydroxy-[1,1′-biphenyl]-4-yl-2′,4′,6′-d3)carbamoyl)cyclopent-1-ene-1-carboxylic Acid]	1 to 10	
[2H]C([2H])([2H])C([2H])([2H])Oc1cccc(-c2cc(F)c(NC(=O)C3=C(C(=O)O)CCC3)c(F)c2)c1 [1/3]	< 0.1	
[2H]c1c([2H])c(F)c([2H])c(-c2cc(F)c(NC(=O)C3=C(C(=O)O)CCC3)c(F)c2)c1[2H] [1/7]	0.1 to 1	
[2H]C(F)(F)Oc1cccc(-c2ccc(NC(=O)C3=C(C(=O)O)CCC3)c(F)c2)c1 [Example 5, 2-((3′-(Difluoromethoxy-d)-3-fluoro-[1,1′-biphenyl]-4-yl)carbamoyl)cyclopent-1-ene-1-carboxylic Acid]		0.839
[2H]c1cc([2H])c(-c2c(F)c(F)c(NC(=O)C3=C(C(=O)O)CCC3)c(F)c2F)c([2H])c1OC(F)(F)F [Example 3, 2-((2,3,5,6-Tetrafluoro-3′-(trifluoromethoxy)-[1,1′-biphenyl]-4-yl-2′,4′,6′-d3)carbamoyl)cyclopent-1-ene-1-carboxylic Acid]	< 0.1	
[2H]C1([2H])OC([2H])([2H])C([2H])([2H])N(c2cc(F)c(NC(=O)C3=C(C(=O)O)CCC3)c(F)c2)C1([2H])[2H] [1/11]	> 10	
